Assay type in all cases: cell-based, mouse
Assay [1] relates to bone morphogenic protein-activated Smad1/5/8 signaling. As to the kind of experiment: Western blot for phosphorylated Smad1/5/8 (alternate bone morphogenic protein-activated signaling) in peripheral macrophages. To be noted: wild-type peripheral macrophages. The method, then:
(§1) Cortical microglia were isolated from neonatal (1-2 day-old) CD11c-DNR or wild-type C57BL/6 mice according to previously published methods (Tan et al., 1999 Science 286: 2352-2355; Town et al., 2006 J. Immunol, 176: 3804-3812), Briefly, brains were isolated under sterile conditions and cerebral cortices were incubated in tripsin-EDTA (Invitrogen-Gibco) for 15 min at 37° C. Complete RPMI 1640 medium (supplemented with 10% FCS and 1 mM penicillin-streptomycin) was then added and brains were dissociated by trituration. Subsequently, cerebral cortex material was plated in 25 cm^2 flasks (Fisher Scientific), and the media was changed every 2-3 days. […] The following morning, MΦ were rinsed four times in ambient temperature PBS and fresh medium was added, Cultures of microglia and peripheral MΦ were both >95% pure as determined by immunofluorescent staining with CD11b and CD45 antibodies. […] Protein concentration was determined using the Bradford method, and aliquots corresponding to 50 μg of protein were run out on 12% Nu-PAGE™ polyacrylamide gels (Invitrogen) and proteins were transferred electrophoretically to Immobilon-P polyvinylidene difluoride membranes (Millipore). […]
In general terms: A western blot detects proteins with antibodies after separation by electrophoresis.

For assay [2], the system named is p21-activated kinase 2 (PAK2). The assay can be described thus: Western blot for phosphorylated PAK2 in peripheral macrophages. Particulars: wild-type peripheral macrophages, 30 min; TGF-β1 5 ng/mL alone, BMP-2 50-200 ng/mL or BMP-4 12.5-50 ng/mL (FIG. 12B). The method, then: Cortical microglia were isolated from neonatal (1-2 day-old) CD11c-DNR or wild-type C57BL/6 mice according to previously published methods (Tan et al., 1999 Science 286: 2352-2355; Town et al., 2006 J. Immunol, 176: 3804-3812), Briefly, brains were isolated under sterile conditions and cerebral cortices were incubated in tripsin-EDTA (Invitrogen-Gibco) for 15 min at 37° C. Complete RPMI 1640 medium (supplemented with 10% FCS and 1 mM penicillin-streptomycin) was then added and brains were dissociated by trituration. Subsequently, cerebral cortex material was plated in 25 cm^2 flasks (Fisher Scientific), and the media was changed every 2-3 days. […] The following morning, MΦ were rinsed four times in ambient temperature PBS and fresh medium was added, Cultures of microglia and peripheral MΦ were both >95% pure as determined by immunofluorescent staining with CD11b and CD45 antibodies.
Microglia or peripheral MΦ from wild-type or CD11c-DNR mice were plated at 1×10^6 cells/well in 6-well tissue culture plates (BD Biosciences-Falcon) containing complete RPMI 1640 media or complete DMEM, respectively. […] Protein concentration was determined using the Bradford method, and aliquots corresponding to 50 μg of protein were run out on 12% Nu-PAGE™ polyacrylamide gels (Invitrogen) and proteins were transferred electrophoretically to Immobilon-P polyvinylidene difluoride membranes (Millipore). […]

For assay [3], the system named is TGF-β-activated Smad2/3 signaling. The assay can be described thus: Western blot for phosphorylated Smad2/3 (canonical TGF-β-activated signaling) in primary macrophages/microglia. Particulars: wild-type peripheral macrophages, 30 min; TGF-β1 5 ng/mL alone, BMP-2 50-200 ng/mL or BMP-4 12.5-50 ng/mL (FIG. 12B). The method, then:
as §1

B1: BMP-2: recombinant bone morphogenic protein (BMP)-2 (protein, UniProt P12643 283-396, looked up)
Bone morphogenetic protein 2: QAKHKQRKRLKSSCKRHPLYVDFSDVGWNDWIVAPPGYHAFYCHGECPFPLADHLNSTNHAIVQTLVNSVNSKIPKACCVPTELSAISMLYLDENEKVVLKNYQDMVVEGCGCR
Take B1: in assay [1] (BMP monotreatment compared with TGF-β1 treatment alone), the “ratio of pSmad1/5/8 to pSmad2/3” value is listed as “increased”. In assay [1] (30 min, TGF-β1 5 ng/mL alone, BMP-2 50-200 ng/mL or BMP-4 12.5-50 ng/mL (FIG. 12B)), the Smad1/5/8 phosphorylation entry is “promoted”. For the same molecule, the PAK2 phosphorylation entry in assay [2] is listed as “promoted”. In assay [3], the Smad2/3 phosphorylation entry is recorded as “did not impact”.
